# Values of other authors in patent US6444477B1, “Assay method for detecting 5-HT2B antagonists” (Pharmagene Laboratories Limited, priority 2000, dated 2002).
# Sequences of proteins named here, by UniProt entry; tags and fusion partners are left off.
# UniProt P41595, whole entry: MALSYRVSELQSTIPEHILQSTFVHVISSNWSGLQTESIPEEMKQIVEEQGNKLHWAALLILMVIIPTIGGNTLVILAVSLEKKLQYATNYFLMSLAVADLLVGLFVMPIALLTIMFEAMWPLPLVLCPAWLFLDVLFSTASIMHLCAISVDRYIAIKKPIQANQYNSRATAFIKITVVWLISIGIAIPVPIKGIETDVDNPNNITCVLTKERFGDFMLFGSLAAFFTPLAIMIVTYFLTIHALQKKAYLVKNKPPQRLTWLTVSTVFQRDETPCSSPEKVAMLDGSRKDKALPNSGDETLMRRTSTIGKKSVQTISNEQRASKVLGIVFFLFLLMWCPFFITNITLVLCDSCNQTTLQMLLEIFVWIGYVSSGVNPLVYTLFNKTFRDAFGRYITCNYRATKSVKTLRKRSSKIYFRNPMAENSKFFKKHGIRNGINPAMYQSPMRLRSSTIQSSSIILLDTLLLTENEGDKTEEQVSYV
# Target: 5-HT2B receptor (Homo sapiens, UniProt P41595)
# Settings: cited from earlier work
structure (smiles),measurement,value
CSc1ccc2c(c1)C(N1CCN(C)CC1)Cc1ccccc1S2 (stereo not shown),affinity from binding data (#) at human 5-HT2B receptor,8.1^#
